# Laboratory results from patent US20060104951A1, “Akt and regulation of RA synovial fibroblast apoptosis” (priority 2004, published 2006).
# Test system: rheumatoid arthritis synovial fibroblasts (RASF)
# Test: ATPlite-M cytotoxicity assay in RASF
# Conditions: TNF-α alone, 18 hours
substance,measurement,value
tumor necrosis factor-alpha [TNF-α],cytotoxicity (ATPlite),Neither treatment with TNF-α nor wortmannin alone could induce cytotoxicity
